Values quoted from earlier work in article PMC10608500, “Xinghamide A, a New Cyclic Nonapeptide Found in Streptomyces xinghaiensis” (Marine Drugs, 2023).

Test system: HeLa cells derived from cervical cancer
Settings: read-out: IC50, cytotoxic activity against HeLa cells

Question: For heptavalinamide A, which IC50 is on record?
Answer: 2800 nM
